Article PMC4528135, “Kinetic Investigations of the Role of Factor Inhibiting Hypoxia-inducible Factor (FIH) as an Oxygen Sensor” (The Journal of Biological Chemistry, 2015)

Chains of the proteins cited; added tags and fusions are not shown. Residues count along the entry.
UniProt Q9GZT9, 181-426: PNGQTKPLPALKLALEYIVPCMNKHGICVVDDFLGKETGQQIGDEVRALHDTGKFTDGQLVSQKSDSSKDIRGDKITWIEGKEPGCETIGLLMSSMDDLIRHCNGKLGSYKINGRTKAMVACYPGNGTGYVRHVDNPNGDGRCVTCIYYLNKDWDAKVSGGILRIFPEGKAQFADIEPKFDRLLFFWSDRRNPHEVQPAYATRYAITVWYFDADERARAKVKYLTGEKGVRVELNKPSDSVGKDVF

Assays:
Assay type in all cases: biochemical
PHD2 [1] = biological target: T1, PHD2 (Homo sapiens, UniProt Q9GZT9); assay: Time course of PHD2-catalyzed peptide hydroxylation; conditions: 4 μM PHD2, 100 μM peptide, 50 μM Fe(II), 300 μM 2OG, 1 mM L-ascorbate, 50 mM HEPES pH 7.5, 37 °C, atmospheric O2; MALDI-TOF-MS; triplicate assays
T1 construct: The catalytic domain of PHD2 (residues 181–426) was purified as described; made in house
Protocol: (§1) Enzymatic assays were conducted as described ([46], [47]). Unless otherwise stated, the assay mixture typically contained 5 μM FIH, 500 μM substrate, 500 μM 2OG, 1 mM L-ascorbate, and 50 μM Fe(NH4)2(SO4)2 or 4 μM PHD2, 100 μM substrate, 300 μM 2OG, 4 mM L-ascorbate, and 50 μM Fe(NH4)2(SO4)2. For HIF-1α CODD19-mer, the background levels of methionine oxidation resulting from assay conditions were subtracted based on non-enzymatic controls ([48]).
FIGURE 3. PHD2- and FIH-catalyzed hydroxylation of HIF-1/2α peptide substrates. A, time course of HIF-1/2α CODD19-mer peptide hydroxylation; B, time course of HIF-1/2α NODD19-mer peptide hydroxylation. Conditions were as follows: 4 μM PHD2, 100 μM peptide, 50 μM Fe(II), 300 μM 2OG, 1 mM L-ascorbate in HEPES 50 mM (pH 7.5) were incubated at 37 °C at atmospheric O2. C, time course of HIF-1α CAD 19- and 35-mer peptide hydroxylation. D, time course of HIF-2α CAD 19- and 35-mer peptide hydroxylation. Conditions were as follows: 5 μM FIH, 500 μM peptide, 50 μM Fe(II), 500 μM 2OG, 1 mM L-ascorbate in HEPES 50 mM (pH 7.5) were incubated at 37 °C at atmospheric O2. The different hydroxylation levels were analyzed by MALDI-TOF-MS. Error bars, S.D. of triplicate assays.

PHD2 [2] = biological target: T1, PHD2; assay: Rapid quench-flow, PHD2 pre-steady-state product and succinate formation; conditions: same mixture as stopped-flow, O2-saturated buffer 1:1, 5 °C, quenched with 1% CF3CO2H
Protocol: Rapid quench-flow experiments were performed using the same conditions and preparation of the assay mixture as used in stopped-flow experiments. Rapid quench-flow equipment (TgK Scientific Ltd.) in an anaerobic glove box was used for the experiments. Samples were quenched with 1% CF3CO2H and analyzed using MALDI-TOF-MS (peptide hydroxylation) as described above or liquid chromatography-mass spectrometry (LC-MS, for succinate production). For LC-MS, chromatographic separation was performed at 50 °C using a Waters ACQUITY BEH Amide 1.7-μm, 2.1 × 100-mm column on a Waters ACQUITY^TM ultraperformance liquid chromatography system (Waters Corp., Milford, MA). The following eluents were used: mobile phase A: 10% H2O, 90% acetonitrile (v/v), 10 mM ammonium formate; mobile phase B: 50% H2O, 50% acetonitrile (v/v), 10 mM ammonium formate. […] Analytes were detected in negative ionization mode using single reaction monitoring on a Quattro triple quadrupole mass spectrometer (Waters) with a cone voltage of 15 V and a capillary voltage of 3.0 kV. […]
To investigate correlation of the spectroscopic observations with rates of product accumulation, equivalent reactions were analyzed by rapid quench-flow methodology. […] The level of peptide hydroxylation was assessed by MALDI-TOF-MS ([42]), and succinate accumulation was analyzed by LC-MS. […]

PHD2 [3] = biological target: T1, PHD2; assay: O2 dependence of PHD2-catalyzed hydroxylation (sealed vials, N2/O2 mixes); conditions: PHD2 with the named 19-mer substrate; 4 μM PHD2, 50 μM Fe(II), 4 mM L-ascorbate, 50 mM HEPES pH 7.5, 37 °C, O2 levels set by mass flow controllers; triplicate assays; read-out: Km^app(O2)
Protocol: (§2) The O2 dependence of FIH-catalyzed reactions was determined by conducting enzymatic assays in an “In vivo 500 Hypoxia Workstation” (Ruskinn) using buffers pre-equilibrated under different pO2 values for 24 h. The O2 dependence of PHD2-catalyzed reactions was determined by conducting enzymatic assays in sealed glass vials with variable N2/O2 contents ([42]). Reactions were stopped by spotting samples onto a matrix-assisted laser desorption/ionization-time of flight mass spectrometry (MALDI-TOF-MS) target plate and immediately mixing with α-cyano-4-hydroxycinnamic acid matrix. Hydroxylation levels were assessed by MALDI-TOF-MS as described ([46]).
FIGURE 4. O2 dependence of FIH- and PHD2-catalyzed hydroxylation of HIF-1/2α. A, O2 dependence of PHD2-catalyzed hydroxylation of HIF-1/2α CODD/NODD 19-mer peptides. 4 μM PHD2, peptide (varied), 50 μM Fe(II), 2OG (varied), 4 mM L-ascorbate in HEPES 50 mM (pH 7.5) were incubated at 37 °C. The different O2 levels were maintained using mass flow controllers ([42]), and the hydroxylation levels were analyzed by MALDI-TOF-MS. B, O2 dependence of FIH-catalyzed hydroxylation of CAD HIF-1/2α 35-mer peptides. Conditions were as follows. 5 μM FIH, 500 μM peptide, 50 μM Fe(II), 1 mM 2OG, 1 mM L-ascorbate in HEPES 50 mM (pH 7.5) were incubated at 37 °C in a hypoxia work station under different pO2. […] Error bars, S.D. of triplicate assays.

[4] = biological target: T2, PHD2 (catalytic domain, residues 181–426) (Homo sapiens, UniProt Q9GZT9); assay: Steady-state kinetics of PHD2-catalyzed HIF-α CODD/NODD hydroxylation (MALDI-TOF-MS); conditions: 4 mM L-ascorbate, 50 mM HEPES pH 7.5, 37 °C; for Km: 50 μM Fe(II), triplicate assays
T2 construct: The catalytic domain of PHD2 (residues 181–426) was purified as described; made in house
Protocol: as §1, §2

PHD2 [5] = biological target: T1, PHD2; assay: Stopped-flow UV-visible spectroscopy, PHD2·Fe(II)·2OG·substrate + O2; conditions: anaerobic 0.8 mM PHD2, 1 mM peptide, 5 mM 2OG, 50 mM HEPES pH 7.5, mixed 1:1 with O2-saturated buffer at 5 °C, double exponential fit
Protocol: Stopped-flow UV-visible spectroscopy experiments were performed as described previously ([32], [42]). […] The reaction was observed over 1000 s using a photodiode array detector, and kinetic traces were analyzed using Origin version 8.51 software. Data were fitted with a double exponential function (y = A1 × exp(−kriset) + A2 × exp(−kfallt) + y0). The A1, A2, and y0 parameters were restricted with upper limits to match the observed amplitude/offset changes.
Previously reported pre-steady-state kinetic studies on PHD2 focused on its reaction with CODD HIF-1α 19-mer peptide ([38], [42]); there is no reported information on the rates of PHD2 reaction with O2 in the presence of NODD HIF-1α or HIF-2α substrates. […] Reactions were initially observed using a photodiode array detector, and difference spectra (in comparison with the reaction with O2-free buffer) were subsequently analyzed.
FIGURE 5. […] B, stopped-flow kinetic traces at 520 nm showing absorbance changes in control experiments: Fe(II) only, mix of Fe(II) and 2OG, reaction of PHD2·Fe(II)·2OG complex with O2 in the absence of CODD; reaction of PHD2·Fe(II)·N-oxalylglycine (NOG)·CODD complex with O2. […] C, stopped-flow kinetic traces at 520 nm showing absorbance species formed on PHD2-catalyzed HIF-1α NODD 19-mer peptide hydroxylation (black) and recombinant protein (HIF-1α(344–503)) hydroxylation (red). […]

For “DALTLLAPAAGDTIISLDF [HIF-1α NODD, 19-mer fragment (395–413) of the HIF-1α N-terminal oxygen-dependent degradation domain, PHD2 substrate]”, the “substrate hydroxylation after 15 min” value (PHD2 [1]) was 50%, the Rapid quench-flow kproduct (PHD2 [2]; peptide hydroxylation by MALDI-TOF-MS, single exponential fit) was 0.0080 ± 0.0020 s⁻¹ and the Rapid quench-flow ksuccinate (PHD2 [2]; succinate by LC-MS) was 0.0060 ± 0.0010 s⁻¹. For the same sequence, the Km (PHD2 [3]) was > 450 µM, the “kcat^app” value ([4]; PHD2, 4 μM PHD2, 50 μM Fe(II)) was 0.028 ± 0.001 s⁻¹ and the Km ([4]; PHD2, 4 μM PHD2, peptide varied, 300 μM 2OG, read-out: Km^app(peptide)) was 11 ± 2 µM. The Km ([4]; PHD2 with the named substrate, 4 μM PHD2, 2OG varied, read-out: Km^app(2OG)) was 30 ± 9 µM, the “Stopped-flow, 520 nm (PHD2) krise phase” value (PHD2 [5]) was 0.002 ± 0.001 s⁻¹ and the “Stopped-flow, 520 nm (PHD2) kfall phase” value (PHD2 [5]; traces average of triplicate, listed as NODD HIF-1α) was 0.178 ± 0.002 s⁻¹ and 0.178 ± 0.006 s⁻¹.

Several values for one entry are separate records, joined by “and”; a condition that tells them apart may be missing. Identical values can stand only once. Like-named read-outs stand apart in the source and are kept apart here.
